The text below walks through data of patent US11713337B2, “Peptide, compositions and method for delivery of agents into cells and tissues” (priority 2019, dated 2023).

The subject of the assay is MNU induced apoptosis in the retina. Briefly: MNU induced apoptosis in the retina, TUNEL staining. It counts as in vivo, C57BL/6J mice. The settings on record: 1.4 μg XIAP with or without 0.4 μg Nuc1 intravitreal 4 h before 50 mg/kg MNU i.p.; eyes 24 hours later; ONL. The source says:
Programmed cell death or apoptosis is a common pathway activated as a consequence of retinal degeneration in diseases such as retinitis pigmentosa (Cottet and Schorderet, 2009). […] As an alternative to transgene delivery, one may envisage delivery of XIAP protein for the treatment of retinal degenerative diseases. This method of treatment is analogous to the current standard of care for the wet form of age-related macular degeneration (AMD, see below), whereby a recombinant protein (e.g. aflibercept) is injected intravitreally to target VEGF. Relative to gene delivery, protein delivery may be more readily titrated for dosing regimens. lntraperitoneal injection of N-methyl-N-nitrosourea (MNU) in mice causes selective induction of apoptosis in the outer nuclear layer (ONL) of the retina and thus this model is useful for testing the efficacy of inhibitors of apoptosis ([…] et al., 2003). […] After 4 h, mice were injected intraperitoneally with 50 mg/lkg MNU. Some mice were injected intraperitoneally with PBS only, as a measure of background apoptosis in the retina. After an additional 24 hours, the eyes of mice were enucleated and processed as above. […] The eye sections were imaged and used for quantification of TUNEL positive cells using ImageJ (FIJI version and plug in) as described previously ([…] et al., 2015).

Turning to “XIAP: purified functional recombinant human XIAP”, the “reduction in the number of TUNEL positive cells relative to MNU only” value came out at 2.2%.
